Measured values from paper PMC8204096 (Clinical & Translational Immunology, 2021).

Chains of the proteins cited; added tags and fusions are not shown. Lines headed by an entry give the natural chain unless they say otherwise; changes in a name come on top.
UniProt Q06187: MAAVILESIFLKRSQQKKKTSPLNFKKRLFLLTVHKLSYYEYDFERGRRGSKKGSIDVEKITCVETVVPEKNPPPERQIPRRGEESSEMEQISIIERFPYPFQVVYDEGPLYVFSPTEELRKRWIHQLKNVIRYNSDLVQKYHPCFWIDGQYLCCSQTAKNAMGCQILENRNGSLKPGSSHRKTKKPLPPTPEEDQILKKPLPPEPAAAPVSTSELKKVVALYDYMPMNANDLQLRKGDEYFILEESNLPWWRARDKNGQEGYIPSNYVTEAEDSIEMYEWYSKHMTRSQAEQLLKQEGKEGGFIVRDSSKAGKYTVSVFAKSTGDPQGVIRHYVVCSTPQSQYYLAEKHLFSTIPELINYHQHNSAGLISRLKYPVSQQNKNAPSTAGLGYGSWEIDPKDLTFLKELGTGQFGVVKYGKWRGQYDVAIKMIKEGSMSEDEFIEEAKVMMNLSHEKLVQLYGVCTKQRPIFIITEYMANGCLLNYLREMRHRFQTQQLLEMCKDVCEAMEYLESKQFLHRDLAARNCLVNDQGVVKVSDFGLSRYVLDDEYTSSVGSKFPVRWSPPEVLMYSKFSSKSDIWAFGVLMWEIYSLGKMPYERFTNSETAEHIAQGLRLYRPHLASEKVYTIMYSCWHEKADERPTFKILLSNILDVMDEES

How the values were obtained:
[1] = tested on: B cells in human whole blood; experiment: Anti-IgD-induced B-cell activation; type: cell-based; conditions: whole blood CD69 IC50 versus whole blood pBTK IC50
human neutrophils = experiment: FcγRIIA-induced human neutrophil reactive oxygen species generation; type: cell-based; conditions: read-out: IC50, immune complex-induced ROS production
[2] = target: recombinant human BTK protein (Homo sapiens, UniProt Q06187); experiment: biochemical

Cn1cc(Nc2nccc(-c3ccc4c(c3)CN(C3COC3)CC[C@H]4NC(=O)c3cn(C(C)(C)C)nn3)n2)cn1 [BIIB091]
shift between proximal (pBTK) and distal (CD69) whole blood IC50s [1]: 5 fold
IC50 (human neutrophils): 4.5 ± 4.9 nM
IC50 [2]: 0.45 nM
